# Ab-14 light chain CDR variants: yeast mating affinities

Values reported by Engelhart et al. 2022, doi:10.1038/s41597-022-01779-4 (FLAb copy).

Binding partner: SARS-CoV-2 spike HR2 peptide, sequence PDVDLGDISGINAS.

Each scFv is VH, a (GGGGS)3 linker, VL, as in the parent Ab-14, and differs from it in the CDRs of the light chain only.
VH: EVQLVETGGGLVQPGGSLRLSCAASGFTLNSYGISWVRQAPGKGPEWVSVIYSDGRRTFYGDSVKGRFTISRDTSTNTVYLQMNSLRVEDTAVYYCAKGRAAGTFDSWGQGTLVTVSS
VL: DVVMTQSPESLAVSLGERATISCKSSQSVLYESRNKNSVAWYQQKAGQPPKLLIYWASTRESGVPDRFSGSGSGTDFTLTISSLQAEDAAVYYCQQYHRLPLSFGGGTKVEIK

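Variants in AAYL50 differ from the parent at up to three CDR positions; double and triple changes were sampled at random. The scFvs were displayed on barcoded MATa yeast, the peptide on MATalpha yeast. After mating in shaken culture at 30 °C for 16 h, diploids were selected and their barcode pairs sequenced. Scores were corrected for input abundance and mapped to Kd with protein pairs of known affinity run in the same pool. There are three technical replicates.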

Each variant is given by its three light chain CDRs, as the data file delimits them; those of the parent are KSSQSVLYESRNKNSVA, WASTRES, QQYHRLPLS. Affinities are written as log10 Kd with Kd in nM; a lower number is a better binder. A mean of the replicates is given; it leaves out those without a signal. An entry "no signal" has no value in the source: the pair was not observed among the diploids in any replicate. This suggests poor binding but is not conclusive. Background: pairings of library AAYL50 with three empty control strains gave a value in 18% of cases (median 4.19, 5th percentile 2.99). Values in that range, when seen in few replicates, are hard to tell from nonspecific mating. Parent in this assay: reference entry 0.65, copy in this library 1.68.

CDR-L1,CDR-L2,CDR-L3,"log10 Kd (nM), mean",detected
KSSQSELYESRNKNMPA,WASTRES,QQYHRLPLS,3.68,1 of 3
KSSQKVLYQSRNKNSVA,WADTRES,QQYHRLPLS,2.15,3 of 3
KSSQSVLDESRNKNSVA,WASDRES,QQYHRLPTS,no signal,0 of 3
KSSQSVLKESRNKNSVA,WAITRES,QQYHCLPLS,1.65,3 of 3
KSSQSVLIESRNKNKVA,WASTRES,SQYHRLPLS,3.80,1 of 3
KSLQSVLYESRFKNSVA,WASTREW,QQYHRLPLS,2.24,1 of 3
KSSQSVLYQSRNKNSVP,WMSTRES,QQYHRLPLS,4.82,2 of 3
KSSQSVLYDSRNKNSVA,WASTRQS,QQYHRLPDS,1.23,3 of 3
KSSQSVLYESRNKWSVA,WASTREL,QQWHRLPLS,no signal,0 of 3
KSSQYVLYESVNKNSVA,WASTRES,NQYHRLPLS,1.28,3 of 3
KSSQAVLYESRNKNSVA,WASERES,QQYHRLPNS,no signal,0 of 3
KSFQSVLYESRNKNSVL,WASTRES,QTYHRLPLS,5.40,1 of 3
KPSQSVLYESRNKNSVA,WASLRES,QQYHRLMLS,3.75,2 of 3
KSSQSVLYESGNKNSVA,CASTRES,QMYHRLPLS,1.28,3 of 3
KSSQSVLYESRNENSVH,WASTRES,QQYHRTPLS,4.28,2 of 3
KSSQSVLYEPRNKNSVA,RASERES,QQYHRLPLS,0.84,3 of 3
KSSQSVLYESRNKNSVA,WAGTRES,QQYHRIPLD,1.29,3 of 3
KSSQSYLPESRNKNSVA,WASTRES,QQYHRLPLL,1.82,3 of 3
KSSQNLLYESRNKNSVA,WASTRET,QQYHRLPLS,0.73,3 of 3
HSRQSVLYESRNKNSVA,WASTCES,QQYHRLPLS,4.29,3 of 3
VSSQDVLYESRNKNSVA,WASTRES,QQSHRLPLS,3.62,3 of 3
KSSQSVLYESRNKNSVA,WASTRMS,QRYHRLPLS,no signal,0 of 3
KSSQVVLYESRNKNMVA,SASTRES,QQYHRLPLS,1.05,3 of 3
ESSQSVLVESRNKNSVA,WASTRES,QQYHRLPLS,1.24,3 of 3
KSSQSVLYESRNLNSVA,WAMTRES,QGYHRLPLS,2.47,3 of 3
KWSQSVAYESRNKNSVA,WASTRES,QQNHRLPLS,2.26,1 of 3
KSSQSVLYESRNKNSVA,WASGRES,CQYGRLPLS,no signal,0 of 3
DDSQSVLYESRNKNSVA,LASTRES,QQYHRLPLS,2.46,3 of 3
KSSRSVLYESHNKNSVA,WASTRES,QQYHMLPLS,0.87,3 of 3
KSSQSVLYESRNKNSQA,WASTRES,QQYHRLPLG,no signal,0 of 3
KISQSDLYESRNKNSVA,WASTRES,QQYHVLPLS,0.07,3 of 3
KSSQSVLYESRNKNSVA,WASTRES,QQGHRLPES,6.03,1 of 3
KSSQSVLYESRMKNSVA,WATTRES,QQTHRLPLS,3.42,2 of 3
KSIQSVLYESRNHNSVA,WASTRES,QQYDRLPLS,3.25,1 of 3
KSSQSVLYNSINKNSVA,WAPTRES,QQYHRLPLS,no signal,0 of 3
QSSTSVLYESRNKNSCA,WASTRES,QQYHRLPLS,no signal,0 of 3
KSSQSVLYESREKNSWA,WASTRES,QQYYRLPLS,3.80,1 of 3
KSSQSDLYESRNKNSVW,WYSTRES,QQYHRLPLS,5.40,1 of 3
FSSQSVLYESRNKNSVA,WASTRES,QQDHRLPLY,2.53,1 of 3
KSSQSVLFESRNKNSVC,WASTRES,QQYHRLPLS,2.92,1 of 3
KSSQSVLYESRNKNSVK,WAETRES,QQYHRLKLS,5.14,1 of 3
KSSQSVLYEDRNKNSCA,WASTRES,QQYHNLPLS,2.65,3 of 3
KSSQSVLYESENKKSVA,WASTRES,QQYHLLPLS,2.20,3 of 3
KSSQSVLYQSRPKNSVA,WASTRES,QQFHRLPLS,2.12,3 of 3
KESQSVLYESRNKNSVA,WWSTRES,QQYHRLPFS,4.84,2 of 3
KSSQSVLYESRNKNSMA,WASTRES,QQFHLLPLS,0.81,3 of 3
KSSQSVLYESRNKNSVA,WTSLRES,TQYHRLPLS,5.15,1 of 3
KSSQSVLYESRSRISVA,WASTRES,QQYHRLPLS,3.19,3 of 3
MSSQSVLYESRNKNSVA,WASTRES,QQYHRLMLS,no signal,0 of 3
KSSQWVLYESRNKNSVA,WASTRES,MQYHRTPLS,no signal,0 of 3
KSSQSVLYESRNKNSVA,WAPTRES,QQYHRTPLS,no signal,0 of 3
KSSQSVLYESPNKNMVA,WASTRES,QQYHRLPLQ,1.79,3 of 3
KSSKSVLYESRNKNSVA,WASTRES,QQYHRFPLH,1.51,3 of 3
SSSQSVLYESRNKNSVA,WASTRES,QPYHRSPLS,5.13,2 of 3
KSSQSVLYESRNKNSVI,WASTRES,QQYHRLPCW,5.46,1 of 3

Top 4 of the variants detected in all replicates, tightest first:

CDR-L1,CDR-L2,CDR-L3,"log10 Kd (nM), mean",detected
KISQSDLYESRNKNSVA,WASTRES,QQYHVLPLS,0.07,3 of 3
KSSQNLLYESRNKNSVA,WASTRET,QQYHRLPLS,0.73,3 of 3
KSSQSVLYESRNKNSMA,WASTRES,QQFHLLPLS,0.81,3 of 3
KSSQSVLYEPRNKNSVA,RASERES,QQYHRLPLS,0.84,3 of 3